Test results published in US10005735B2, “Inhibitors of RPN11” (California Institute of Technology, priority 2015, dated 2018).
pIC50: −log10 of the molar value.

Chains of the proteins cited; added tags and fusions are not shown. Lines headed by an entry give the natural chain unless they say otherwise; changes in a name come on top.
UniProt O00487, whole entry, looked up: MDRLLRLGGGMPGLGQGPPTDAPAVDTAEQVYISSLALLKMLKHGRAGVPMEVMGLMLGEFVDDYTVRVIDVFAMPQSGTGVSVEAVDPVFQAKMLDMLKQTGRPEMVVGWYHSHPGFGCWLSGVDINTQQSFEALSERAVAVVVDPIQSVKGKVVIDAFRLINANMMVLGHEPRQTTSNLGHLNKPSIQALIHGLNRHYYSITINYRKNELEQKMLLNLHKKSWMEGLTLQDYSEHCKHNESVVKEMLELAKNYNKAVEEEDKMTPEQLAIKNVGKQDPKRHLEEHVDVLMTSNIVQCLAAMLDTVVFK
UniProt O95630, whole entry: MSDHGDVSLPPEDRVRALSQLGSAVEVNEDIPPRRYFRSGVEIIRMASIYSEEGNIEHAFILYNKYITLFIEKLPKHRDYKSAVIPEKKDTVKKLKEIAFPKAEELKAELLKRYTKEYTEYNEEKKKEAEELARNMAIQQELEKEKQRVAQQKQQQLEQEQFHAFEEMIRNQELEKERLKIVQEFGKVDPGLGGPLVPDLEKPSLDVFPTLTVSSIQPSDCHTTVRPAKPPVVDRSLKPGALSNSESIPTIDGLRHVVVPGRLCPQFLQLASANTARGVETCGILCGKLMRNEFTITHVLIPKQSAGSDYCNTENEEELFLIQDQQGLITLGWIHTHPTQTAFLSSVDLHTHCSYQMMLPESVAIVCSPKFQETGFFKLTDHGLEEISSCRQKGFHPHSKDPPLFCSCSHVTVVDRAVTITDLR
UniProt Q92905: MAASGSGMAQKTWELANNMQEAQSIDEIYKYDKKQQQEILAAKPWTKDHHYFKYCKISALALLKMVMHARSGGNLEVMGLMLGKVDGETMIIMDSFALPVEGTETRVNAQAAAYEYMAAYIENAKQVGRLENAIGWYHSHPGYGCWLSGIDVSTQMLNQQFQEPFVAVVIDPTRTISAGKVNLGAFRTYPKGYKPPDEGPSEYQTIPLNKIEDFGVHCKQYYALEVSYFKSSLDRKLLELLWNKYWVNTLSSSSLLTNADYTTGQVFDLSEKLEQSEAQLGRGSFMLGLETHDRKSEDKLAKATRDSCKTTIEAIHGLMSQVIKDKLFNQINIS

Legend:
Type in all cases: biochemical
Rpn11 = Rpn11 (Homo sapiens (Human), UniProt O00487); assay: Rpn11 activity assay (fluorescence polarization, Ub4-pepOG cleavage by 26S proteasome); conditions: Table 2; 1 mM DTT in assay reduces disulfides to monomeric active species
Source text: Candidate compounds according to embodiments of the present invention were synthesized as described herein. […] In brief, this Rpn11 bioassay employs a fluorescent polarization readout based on the ability of the 26S proteasome to cleave the protein substrate including four tandem ubiquitin proteins fused to a peptide having a unique cysteine labeled with a fluorophore. Cleavage of this substrate by Rpn11 at the junction between the fourth ubiquitin and the peptide, releases the low molecular weight fluorescent peptide. Accordingly, inhibition of fluorescence correlates with inhibition of Rpn11. Inhibition is reported as the half maximal inhibitory concentration (IC50) for the candidate compound.
Rpn11 Activity Assay. […] In brief, in order to measure the Rpn11 activity, a synthetic peptide substrate, termed Ub4-pepOG, was engineered. […] Fluorescence polarization assay was performed in a low-volume 384 well solid black plate where the components are added in the follow sequence: 1) 5 μl compound in 3% DMSO or 3% DMSO control 2) 5 μl 26S proteasome (Enzo Life Sciences Inc, NY). […] Fluorescence polarization is measured using a PHERAstar (BMG labtech, Ortenberg, Germany) plate reader with excitation of 480 nm and emission of 520 nm filter set. […]

AMSH = AMSH (Homo sapiens (Human), UniProt O95630); assay: AMSH activity assay (DiUb^K63TAMRA cleavage, fluorescence); conditions: Table 2
Source text: AMSH Activity Assay. AMSH is known to selectively cleave ubiquitin chains in which the ubiquitins are joined via K63 of the proximal ubiquitin linked by an isopeptide bond to the carboxy terminus of the distal ubiquitin. […] In brief, DiUb^K63TAMRA was labeled with quench pairs TAMRA/QXL.

Csn5 = Csn5 (Homo sapiens (Human), UniProt Q92905); assay: Csn5 activity assay (fluorescence polarization, SCF^skp2-Nedd8OG, COP9 Signalosome Complex); conditions: Table 2
Source text: 30, 2013, and Arnst et al., 2013, “High-throughput compatible fluorescence resonance energy transfer-based assay to identify small molecule inhibitors of AMSH deubiquitinase activity,” Anal Biochem, 440; 71-77, the entire contents of both of which are herein incorporated by reference.
Csn5 Activity Assay. […] In brief, a fluorescent substrate termed SCF^skp2-Nedd8OG was produced to measure CSN5 activity in vitro. This assay measures the decrease in fluorescence polarization due to the decrease in apparent molecular weight of Oregon Green (OG) fluorophore (from the ˜175 kDa substrate to ˜9 kDa Nedd8OG) as a result of Csn5-mediated cleavage of the isopeptide bond that links Nedd8OG to SCF^Skp2. The assay was performed in a low-volume 384 well solid black plate comprising equal volumes of compound, substrate (SCF^skp2-Need8OG) and enzyme (purified COP9 Signalosome Complex, CSN). Fluorescence polarization was recorded using the same setting as for the Rpn11 activity assay. IC50 was calculated as described in Example 75.

**Q.** `CNC(=O)c1cnc2c(SSc3cccc4cc(C(=O)NC)cnc34)cccc2c1` [Compound 2, 8,8′-Disulfanediylbis(N-methylquinoline-3-carboxamide)] was tested. Which pIC50 (Rpn11) did it give?
**A.** Its pIC50 is 5.80.

**Q.** With `O=C(NCCc1nccs1)c1cnc2c(SSc3cccc4cc(C(=O)NCCc5nccs5)cnc34)cccc2c1` [Compound 12, 8,8′-Disulfanediylbis(N-(2-(thiazol-2-yl)ethyl)quinoline-3-carboxamide)] as the compound, how does the pIC50 (AMSH) read?
**A.** The pIC50 was 5.35.

**Q.** `O=C(NCc1ccc(N2CCOCC2)cc1)c1cnc2c(SSc3cccc4cc(C(=O)NCc5ccc(N6CCOCC6)cc5)cnc34)cccc2c1` [Compound 21, 8,8′-Disulfanediylbis(N-(4-morpholinobenzyl)quinoline-3-carboxamide)] was tested. Which pIC50 (Csn5) did it give?
**A.** The pIC50 was 6.46.
